# Data published in PubChem BioAssay AID1467 (National Center for Advancing Translational Sciences (NCATS), 2008).
# Amino acid sequences for entries named in this document (tags omitted).
# UniProt P06280, whole entry: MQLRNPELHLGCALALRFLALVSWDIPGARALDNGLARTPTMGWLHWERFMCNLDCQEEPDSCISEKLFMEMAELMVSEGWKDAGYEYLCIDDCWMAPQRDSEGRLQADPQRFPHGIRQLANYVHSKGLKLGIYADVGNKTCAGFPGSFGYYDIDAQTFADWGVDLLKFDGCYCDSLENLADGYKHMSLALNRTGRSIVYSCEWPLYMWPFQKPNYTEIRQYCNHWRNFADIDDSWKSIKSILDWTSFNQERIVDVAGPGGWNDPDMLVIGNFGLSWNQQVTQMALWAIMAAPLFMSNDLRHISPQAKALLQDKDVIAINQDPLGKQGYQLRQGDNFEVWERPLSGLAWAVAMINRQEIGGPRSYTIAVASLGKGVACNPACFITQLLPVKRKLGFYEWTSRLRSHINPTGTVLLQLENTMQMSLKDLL
# “And” between values parts separate entries of the source, which are not always exact repeats. Identical values can stand only once. This is a selection; strong and weak results do not stand in their true shares. The source made the active and inactive calls. Calls come from the whole dose curve; as a rule, active = well fitted curve in the direction sought with a large enough effect; inconclusive = small, poorly fitted or top-dose-only effect, or effect the other way, or another doubt; inactive = no such curve, though single readings can be large or run the other way.
# Molecular target: Alpha-galactosidase A (Homo sapiens) (UniProt P06280)
# Experiment: qHTS Assay for Inhibitors of Human alpha-Galactosidase at pH 4.5.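 Note: 0% = full activity with enzyme and -100% = basal without enzyme.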
# Conditions: purified enzyme, 4-MU-alpha-Gal fluorescence; at 105 µM (top of the series) unless noted
# Text: NIH Chemical Genomics Center [NCGC]
# NIH Molecular Libraries Probe Production centers Network [MLPCN]
# Assay Submitter (PI): Wei Zheng
# Alpha-galactosidase is a homodimeric glycoprotein that hydrolyzes the terminal alpha-galactosyl moieties from glycolipids and glycoproteins. Deficiency of this enzyme results in Fabry Disease with progressive accumulation of globotriaosylceramide and other glycosphingolipids in vascular endothelial cells that causes renal failure, myocardial infarction and stroke, and premature death in patients. It has been reported that the improper folding and trafficking of alpha-galactosidase resulting from the genetic mutations may account for a significant numbers of Fabry patients. […] We optimized this alpha-galactosidase assay in 1536-well plate format for identifying the novel small molecule inhibitors with the structures other than the sugar analogs in order to develop the new pharmacological chaperones. Although this assay has the same protocol as PubChem AID 992, this is a separate project and, therefore, is published as a separate assay
# NCGC Assay Protocol Summary:
# This is a fluorogenic enzyme assay with 4-Methylumbelliferyl alpha-D-galactopyranoside as the substrate and human […] as the enzyme preparation. Upon the hydrolysis of this fluorogenic substrate, the resulting product, […]. 4-Methyllumbelliferone, can be excited at 365 nm and emits at 440 nm. This fluorescence which can be detected by a standard fluorescence plate reader. Data were normalized to the controls for basal activity (without enzyme) and 100% activity (with enzyme). In the AC50 values were determined from concentration-response data modeled with the standard Hill equation.
# Assay buffer: 50 mM citric acid (titrated with potassium phosphate to pH 4.5), 0.005% Tween-20, pH 4.5. (pH 4.5 is an optimal condition for this enzyme assay)
# 1536-well assay protocol for the human alpha-galactosidase:
# (1) Add 2 ul/well of enzyme (12 nM final)
# (2) Add 23 nL compounds in DMSO solution. The final titration was 0.7 nM to 77 uM.
# (3) Add 1 ul of substrate (400 uM final)
# (4) Incubate at room temperature for 20 min.
# (5) Add 2 ul stop solution (1M NaOH and 1M Glycine mixture, pH 10)
# (6) Detect the assay plate in a ViewLux plate reader (PerkinElmer) with Ex=365 nm and Em=440nm.
# Keywords: MLSMR, MLPCN, NIH Roadmap, qHTS, NCGC, : Alpha-galactosidase, Fabry Disease, pharmacological chaperone, chaperone therapy
row,Compound,"activity change, negative = inhibition"
1,COc1ccc(OP(C)(=O)Nc2ccccc2Br)cc1 (centres undefined),inactive: 0.0932%
2,COc1ccccc1OP(C)(=O)Nc1ccc(C)c(C)c1 (centres undefined),inactive: 5.48%
3,CN(C(=O)Cc1ccc(Cl)c(Cl)c1)[C@H]1CCCC[C@@H]1N1CCCC1,inactive: -5.08% [middle of 6 runs]
4,Cc1ccc(NP(=O)(Oc2ccccc2F)Oc2ccccc2F)nc1,inactive: -3.27%
5,Cc1cc(SC(NC(=O)c2ccc(F)cc2)C(Cl)(Cl)Cl)ncn1 (centres undefined),inactive: -6.33%
6,CCOP(=O)(Nc1ccccc1)OCC,inactive: -5.06% and inactive: -3.5%
7,O=P(Nc1nc2ccc(Cl)cc2s1)(c1ccccc1)c1ccccc1,inactive: 0.573%
8,Cc1cc(C)cc(OP(C)(=O)Nc2cccc(C(F)(F)F)c2)c1 (centres undefined),inactive: -0.976%
9,CC(=O)Nc1ccc([As](=O)(O)O)cc1,inactive: -5.14%
10,O=C(O)c1ccccc1[As](=O)(O)O,inactive: -5.55%
11,CP(=O)(Nc1ccc(Cl)cc1Cl)Oc1ccccc1 (centres undefined),inactive: -3.41%
12,CP(=O)(OCCOc1ccccc1)OCCOc1ccccc1,inactive: -5.28%
13,Nc1cccc2ccc([As](=O)(O)O)cc12,inactive: 1.28%
14,CCN(N=Nc1nonc1N)c1nonc1N,inactive: -1.91%
15,Cc1nc2ccc3ccccc3c2o1.O=[N+]([O-])c1cc([N+](=O)[O-])c(O)c([N+](=O)[O-])c1,inactive: -5.11%
16,CN1CCCC(OC(=O)C(c2ccccc2)c2ccccc2)C1 (centres undefined),inactive: -1.95%
17,CN(C)CCOC(=O)C(O)(c1ccccc1)C1CCCC1 (centres undefined),inactive: 3.04%
18,Clc1ccc(Cl)c(NC2=NCC(CBr)S2)c1 (centres undefined),inactive: 6.22%
19,Cc1ccc(OP(=O)(Nc2nccs2)Oc2ccc(C)cc2)cc1,inactive: -1.06%
20,COc1ccccc1OP(=O)(Nc1ccc(C)cn1)Oc1ccccc1OC,inactive: -3.16%
21,COc1ccc(OP(C)(=O)Nc2ccccn2)cc1 (centres undefined),inactive: 2.7%
22,Cc1ccc(N/C(=N/P(=O)(N2CCOCC2)N2CCOCC2)N2CCOCC2)cc1,inactive: 6.26%

row,Compound,"activity change, negative = inhibition"
1,COc1ccccc1OP(C)(=O)Nc1ccc(Br)cc1 (centres undefined),inactive: 1.64%
2,NC(=O)c1cc([N+](=O)[O-])cc([N+](=O)[O-])c1N,inactive: -7.54%
3,CCc1ccc(OP(C)(=O)O)cc1,inactive: 1.08%
4,COc1ccccc1OP(C)(=O)Nc1ccc(C)cc1C (centres undefined),inactive: -0.623%
5,CP(=O)(Nc1ccccn1)Oc1ccccc1 (centres undefined),inactive: -0.49%
6,O=C(NC(Sc1ccncn1)C(Cl)(Cl)Cl)c1ccccc1 (centres undefined),inactive: -4.22%
7,Cc1c2non([O-])c-2c(C)[n+](=O)[n+]1[O-],inactive: 4.81%
8,Oc1ccccc1CNc1ccccn1,inactive: -3.48%
9,Nc1cc(N)c2nonc2c1[N+](=O)[O-],inactive: -4.96%
10,Cc1c(NP(C)(=O)Oc2ccc(C(C)C)cc2)c(=O)n(-c2ccccc2)n1C (centres undefined),inactive: -21.7%
11,O=[N+]([O-])c1cc([N+](=O)[O-])c(Nc2ccccn2)c([N+](=O)[O-])c1,inactive: -10.8%
12,CC(C)CC(=O)NC(Sc1ccc(Cl)cc1)C(Cl)(Cl)Cl (centres undefined),inactive: -1.68%
13,CCc1ccc(OP(C)(=O)Nc2cccnc2)cc1 (centres undefined),inactive: 6.62%
14,O=[N+]([O-])c1cc([N+](=O)[O-])c(CCNc2ccccc2)c([N+](=O)[O-])c1,inactive: 0.948%
15,CCc1nc2c(n1)c1c(non1O)c1c2no[n+]1[O-],inactive: -0.699%
16,Cc1ccc(NP(=O)(Oc2ccccc2)Oc2ccccc2)nc1,inactive: 0.297%
17,CP(=O)(Oc1ccccc1)N1CCOC1=O (centres undefined),inactive: -0.689%
18,O=C(OCCCN1CCCC1)C(O)(c1ccccc1)C1CCCCC1 (centres undefined),inactive: -14.8%
19,OCCSCCO,inactive: 7.94%
20,CC(=O)N1C2C3N(C(C)=O)C1C1N(C(C)=O)C(C(N1C(C)=O)N3C(C)=O)N2C(C)=O,inactive: -2.79%
21,O=[N+]([O-])c1cccc2n[nH]nc12,inactive: -2.53%
22,COc1ccccc1OP(C)(=O)Nc1c(C)n(C)n(-c2ccccc2)c1=O (centres undefined),inactive: 1.42%

row,Compound,"activity change, negative = inhibition"
1,COc1ccc(C2=NCC(CBr)S2)cc1 (centres undefined),inactive: -7.11%
2,COc1ccc(OP(C)(=O)Nc2ccc(Br)cc2)cc1 (centres undefined),inactive: -3.18%
3,CCN(CC)CC(O)COC(=O)C(O)(c1ccccc1)C1CCCCC1 (centres undefined),inactive: -0.001%
4,CC1CCN(C(=O)Oc2c(Cl)cc(Cl)c3cccnc23)CC1,inactive: 2.54%
5,CC(=O)C1=CCCC2CCC1N2 (centres undefined),inactive: -6.54%
6,CN(C)C(=O)OCCc1n(C)cc[n+]1C,inactive: 9.08%
7,CC(C)=N/N=C(\N)N[N+](=O)[O-],inactive: -0.153%
8,CN(C)C(=O)c1c([N+](=O)[O-])cc([N+](=O)[O-])cc1[N+](=O)[O-],inactive: -1.3%
9,CP(=O)(Nc1ccc(Cl)cc1)Oc1ccc(F)cc1 (centres undefined),inactive: 6.73%
10,CCN(/C(=N/P(=O)(N1CCOCC1)N1CCOCC1)N1CCOCC1)c1ccc(OC)cc1,inactive: 0.334%
11,C[N+]1=C2C=CC=CC=C2SC12C([N+](=O)[O-])=CC([N+](=O)[O-])=C[C-]2[N+](=O)[O-] (centres undefined),inactive: -3.69%
12,COc1ccccc1OP(C)(=O)Nc1ccccc1Br (centres undefined),inactive: 6.62%
13,Nc1ccc([As](=O)(O)c2ccc(N)cc2)cc1,inactive: 1.16%
14,CC(C)(C)c1ccc(OP(C)(=O)O)cc1,inactive: -2.02%
15,CP(=O)(OC12CC3CC(CC(C3)C1)C2)OC12CC3CC(CC(C3)C1)C2,inactive: -3.93%
16,O=C(Nc1cc([As](=O)(O)O)ccc1O)c1ccccc1,inactive: 6.74%
17,CCOC(=O)c1ccc(NP(C)(=O)Oc2ccc(Cl)cc2)cc1 (centres undefined),inactive: -6.45%
18,O=C(O)CNc1ccc([As](=O)(O)O)cc1,inactive: -5.36%
19,O=[N+]([O-])c1cccc(NC2=NCC(CBr)S2)c1 (centres undefined),inactive: -11.3%
20,C/C1=C2N=C(/C=C3N=C(/C(C)=C4\[N-][C@@](C)([C@H]5N=C1[C@@](C)(CCC(=O)NC[C@H](C)OP(=O)([O-])O[C@@H]1[C@H](O)[C@H](n6cnc7cc(C)c(C)cc76)O[C@@H]1CO)[C@@H]5CC(N)=O)[C@](C)(CC(N)=O)[C@H]4CCC(N)=O)[C@@](C)(CC(N)=O)[C@@H]\3CCC(N)=O)C(C)(C)[C@@H]/2CCC(N)=O.[C-]#N.[Co+3],inactive: 1.01%
